Results reported in US11731934B2, “HDAC inhibitor compounds and methods of treatment” (University of Florida Research Foundation, Inc., priority 2014, dated 2023).

How the values were obtained:
MDA-MB-231 cells [1] = conditions: UF010 at 1 μM
MDA-MB-231 cells [2] = assay: Cell cycle analysis by FACS; type: cell-based; conditions: 24 h
[3] = tested on: Ad-MLP-Luc reporter in HCT116 cell line; assay: Ad-MLP-Luc luciferase reporter activation assay; type: cell-based; conditions: HCT116, compared to Ad-E2-Luc reporter
HCT116 cells = assay: H3K18ac after 6 h pulse treatment and drug washout; type: cell-based; conditions: 6 h exposure then washout

O=C(CCCCCCC(=O)Nc1ccccc1)NO [SAHA, vorinostat]
Cell migration to the denuded areas (MDA-MB-231 cells [1]): did not significantly affect this phenotype | Cell cycle effect (MDA-MB-231 cells [2]; 1 μM): inhibited G1/S progression | Cell cycle effect (MDA-MB-231 cells [2]; 10 μM): induced a strong G2/M block | Ad-MLP-Luc reporter activity [3]: dramatically increased in a dose-dependent manner | Persistence of induced histone acetylation (H3K18ac) after drug addition (HCT116 cells): quickly reduced to normal levels upon the drug removal | Time to induction of histone acetylation (H3K18ac) (HCT116 cells): ≤ 6 h
